Test results taken from patent US20210062146A1, “OPTIMIZED IN VITRO CELLULAR SYSTEM FOR BBB PERMEABILITY LINKED NEUROACTIVITY SCREENING” (priority 2019, published 2021).

Test system: SH-SY5Y neurons
Experiment: BBB permeability linked neuroactivity (Neurite Outgrowth Staining Kit)
Settings: 50 μM initial apical concentration, 3 hour permeation, n=4

## NC(=O)N1c2ccccc2C=Cc2ccccc21 [carbamazepine]
  neurite outgrowth, percent of control NVU SH-SY5Y cells with vehicle: 96±9%
